Compound activity from PubChem.
The list is not random: actives were taken first. Their share in the collection is about 13%.
ALDH1A1 inh = ALDH1A1 (human) enzyme inhibition. P00352. Purified ALDH1A1, NADH fluorescence, propionaldehyde substrate. Potency, µM (doses to about 75.3 µM), hits mostly inhibitors. hit rate 7.3% among 220,000. AID 1030; active = well fitted inhibition curve with a large enough effect, not every such curve was filed as active; inconclusive = small, poorly fitted or top-dose-only effect, or another doubt; inactive = no such curve, though single readings can be large or run the other way
JMJD2E inh = JMJD2E (human) inhibition; JMJD2E catalytic domain, FDH-coupled NADH fluorescence (FDH is formaldehyde dehydrogenase); Potency, µM (doses to about 57.1 µM), actives largely listed as inhibitors; hit rate 1.6% among 230,000; AID 2147; active = well fitted inhibition curve with a large enough effect, not every such curve was filed as active; inconclusive = small, poorly fitted or top-dose-only effect, or another doubt; inactive = no such curve, though single readings can be large or run the other way; also: nearly all actives have a fitted effect of over 50% in size
G9a block = G9a (human) methyltransferase inhibition; G9a H3K9 monomethylation, AlphaScreen, 2 h; Potency, µM (top dose mostly 102 µM), usual class: inhibitors; hit rate 8.8% among 350,000; Q96KQ7; also: nearly all actives have a fitted effect of over 75% in size
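Chemiluminescent proximity detection of H3K9 monomethylation, read after 10 min bead incubation in the dark. Reaction: 20 nM G9a, 500 nM biotin-H3K9 peptide, 20 uM SAM cofactor, 2 h, room temperature, following 15 min enzyme-compound preincubation.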
LMNA splice mod = LMNA splicing modulation. HeLa LMNA splicing GFP/RFP minigene ratio, 48 h. Potency, µM (top dose mostly 46.1 µM), actives largely listed as inhibitors. hit rate 0.01% among 200,000. AID 1487; active = well fitted inhibition curve with a large enough effect in the signal ratio, with a control signal flat, not every such curve was filed as active; inconclusive = small, poorly fitted or top-dose-only effect, or effect the other way, or a change in a side signal; the % refers to the signal ratio
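Read-out is the ratio of GFP to DsRed2 object intensity, acquired by 488 nm laser-scanning cytometry on HeLa lamin A-EGFP minigene reporter cells. Compound incubation 48 hrs at 37 °C in Opti-MEM with 2% FBS; DMSO 0.5% final.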
miR-21 reporter = raises the signal of a miR-21 reporter; AID 2288; 340,000 tested, under 10 active; Potency, µM (doses to about 38.3 µM); HeLa miR-21 FLuc reporter, luciferase, 48 h; active = well fitted rising curve with a large enough effect; inconclusive = small, poorly fitted or top-dose-only effect; inactive = no such curve, though single readings can be large or run the other way;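 note: miR-21 action dims this reporter so a rising signal means less miR-21 action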
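HeLa cells endogenously expressing miR-21, stably carrying CMV-driven firefly luciferase with a downstream miR-21 binding site, 2000 cells/well. Titrations up to approximately 40 uM, 48 hours; luciferase luminescence read.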
Sfp PPTase inh = blocks B. subtilis Sfp PPTase activity; Q9F4F7; Biochemical Sfp PPTase activity, qHTS; Potency, µM, actives largely listed as inhibitors; hit rate 3.5% among 310,000; AID 1490;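 also: the enzyme is Sfp with the accession as filed and its product quenches rhodamine fluorescence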
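Buffer: 50 mM Hepes-Na pH 7.6, 10 mM MgCl2, 0.01% Nonidet P-40, 0.01% BSA. Enzyme 15 nM, pre-exposed to compound 15 min; substrates then added and fluorescence change tracked over 30 min.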
Numbers stand for hits; n = inactive; u = inconclusive; x = no result given; [ ] = another dose, or the depositor's remark. Unless noted, calls follow the shape of the dose curve; as a rule, active = well fitted curve in the direction sought with a large enough effect; inconclusive = small, poorly fitted or top-dose-only effect, or another doubt; inactive = no such curve, though single readings can be large; an effect the other way counts as inactive or inconclusive.

SMILES	ALDH1A1 inh	JMJD2E inh	G9a block	LMNA splice mod	miR-21 reporter	Sfp PPTase inh
CCN(CC)CCCNc1oc(-c2ccc(OC)c(OC)c2)nc1C#N	u	2.2µM	n[2.33 µM]	n	n	n
COc1ccc(-c2nc(C#N)c(NCCCn3ccnc3)o2)cc1OC	u	u	n[12.7 µM]	n	n	n
CC1=C(C(=O)OCCBr)C(c2cccc3ccccc23)NC(=O)N1 (stereo not drawn)	x	x	79µM	x	n	n
CC1=C(C(=O)OCCCBr)C(c2ccc3c(c2)OCO3)NC(=O)N1 (stereo not drawn)	x	x	50µM	x	n	n
CCCCOc1ccccc1C1NC(=O)NC(C)=C1C(=O)OCc1ccco1 (stereo not drawn)	u	n	22µM	n	n	n
CCCOC(=O)C1=C(C)NC(=O)NC1c1cccc2ccccc12 (stereo not drawn)	x	x	n	x	n	n
NC(=O)c1nsc(C(=O)N(c2cccc(F)c2)C(C(=O)NC2CCCC2)c2ccco2)c1N (stereo not drawn)	x	x	n	x	n	n
CN1CCN(C(=S)c2cn(CCOc3ccccc3)c3ccccc23)CC1	u	n	40µM	u	n	n
CN1CCN(C(=S)c2cn(CCOc3ccccc3F)c3ccccc23)CC1	n	n	35µM	n	n	n
CCN(CC)C(=O)C1CCCN(c2ccccc2[N+](=O)[O-])C1 (stereo not drawn)	13µM	n	x	u	n	n
CCN(CC)C(=O)C1CCCN(Cc2sccc2C)C1 (stereo not drawn)	u	u	32µM	n	n	n
COC(=O)Cc1c(C)[nH]n(-c2cc(Cl)cc(Cl)c2)c1=O	7.1µM	n	40µM	x	n	n
COCCn1ccc2c(OCC(=O)NCc3ccc(C)cc3)cccc2c1=O	x	x	n[0.501 µM]	x	x	x
C/C(=N/N=C(/N)SCc1ccccc1)C(C)(C)C	u	n	10µM	n	n	n
CCOc1ccc(/C=C/c2nc(C#N)c(Nc3ccc(OC)cc3)o2)cc1	x	x	n	x	n	x
COc1ccccc1NS(=O)(=O)c1cc(NC(=O)c2ccncc2)ccc1N1CCCC1	11µM	n	7.9µM	n	n	14µM
COCC(=O)Nc1ccc(N2CCCC2)c(S(=O)(=O)Nc2ccccc2OC)c1	x	x	n[2.33 µM]	x	x	x
COc1ccccc1NS(=O)(=O)c1cc(NC(C)=O)ccc1N1CCCCC1	8.9µM	n	8.9µM	n	n	45µM
CCCCCC(=O)Nc1ccc(N2CCOCC2)c(S(=O)(=O)Nc2ccc(OC)cc2)c1	x	x	11µM	x	x	x
COc1ccccc1NS(=O)(=O)c1cc(NC(=O)CCNC(C)=O)ccc1N1CCCCC1	x	x	n[0.501 µM]	x	x	x
CCC(=O)Nc1ccc(N2CCOCC2)c(S(=O)(=O)Nc2ccc(OC)cc2)c1	n	n	n	n	n	n
COc1ccccc1NS(=O)(=O)c1cc(N2Cc3ccccc3C2=N)ccc1N1CCOCC1	8.9µM	n	14µM	u	n	u
CCc1cccc(NC(=O)C(Cc2ccccc2)NS(=O)(=O)c2ccc3c(c2)oc(=O)n3C)c1 (stereo not drawn)	x	x	n	x	n	x
COc1ccccc1NS(=O)(=O)c1cc(NC(=O)Nc2cccc(C)c2)ccc1N1CCCCC1	u	n	25µM	u	n	n
COc1ccc(C(=O)Nc2ccc(Cl)c(S(=O)(=O)Nc3ccccc3OC)c2)cc1	u	n	n	u	u	n
SMILES	ALDH1A1 inh	JMJD2E inh	G9a block	LMNA splice mod	miR-21 reporter	Sfp PPTase inh
COc1ccccc1NS(=O)(=O)c1cc(NC(=O)C2CC2)ccc1N1CCOCC1	u	u	8.9µM	u	n	n
COc1ccccc1NS(=O)(=O)c1cc(NC(=O)c2ccc(Cl)nc2)ccc1Cl	25µM	u	u	u	u	n
COCCNC(=S)Nc1ccc(N2CCOCC2)c(S(=O)(=O)Nc2ccccc2OC)c1	x	x	n[2.33 µM]	x	x	x
Cc1ccc(CNC(=O)C2CCCN2C(=O)Nc2ccc(F)cc2)cc1 (stereo not drawn)	x	x	x	x	n	n
O=C(CSc1ncc2c(n1)-c1ccccc1N(Cc1ccc(F)cc1)S2(=O)=O)NCc1ccccc1	x	x	n	x	n	x
O=C(CCCN1C(=O)/C(=C/c2cccs2)SC1=S)Nc1cccc(C(=O)O)c1	n	u	u	x	n	n
O=C(CCN1C(=O)/C(=C/c2cccs2)SC1=S)Nc1ccc(C(=O)O)c(O)c1	x	x	45µM	x	n	n
